Reference: patent publication US20020160916A1, “Agricultural formulation” (priority 2001, published 2002)

Test: pH of the composition
Format: physicochemical
Conditions: pH of the composition / salt on its own

Monoethanolamine salt of boric acid
pH: 9.0
